{"source": "patent US20240016735A1", "about": "“IONIC LIQUIDS FOR DRUG DELIVERY” (PRESIDENT AND FELLOWS OF HARVARD COLLEGE, priority 2019, published 2024)", "settings": "cation:anion 1:2", "data": [{"substance": "choline and 4-phenolsulfonic acid [CASA]", "values": [{"measurement": "physical state at room temperature", "value": "solidified or formed a gel"}]}]}
